The values that follow come from ChEMBL document CHEMBL1134874, “Identification of a novel partial inhibitor of dopamine transporter among 4-substituted 2-phenylquinazolines” (Bioorg Med Chem Lett, 2002).

Chains of the proteins cited; added tags and fusions are not shown.
UniProt P31652, whole entry: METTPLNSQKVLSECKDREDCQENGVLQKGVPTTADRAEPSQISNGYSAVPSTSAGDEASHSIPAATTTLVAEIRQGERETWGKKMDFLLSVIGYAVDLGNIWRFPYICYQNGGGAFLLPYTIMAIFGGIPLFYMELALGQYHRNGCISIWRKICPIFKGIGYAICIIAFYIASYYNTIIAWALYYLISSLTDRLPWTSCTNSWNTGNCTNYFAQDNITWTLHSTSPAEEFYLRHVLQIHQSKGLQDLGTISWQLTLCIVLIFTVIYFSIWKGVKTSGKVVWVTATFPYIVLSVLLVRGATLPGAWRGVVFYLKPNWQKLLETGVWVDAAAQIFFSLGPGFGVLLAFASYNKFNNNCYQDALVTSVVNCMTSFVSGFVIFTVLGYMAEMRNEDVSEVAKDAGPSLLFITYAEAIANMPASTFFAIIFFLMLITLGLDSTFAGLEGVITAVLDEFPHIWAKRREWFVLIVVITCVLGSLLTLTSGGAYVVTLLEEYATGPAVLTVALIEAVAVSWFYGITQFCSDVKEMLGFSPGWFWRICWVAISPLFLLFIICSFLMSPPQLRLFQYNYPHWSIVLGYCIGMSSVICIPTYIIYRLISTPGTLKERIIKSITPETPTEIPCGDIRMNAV

The target of this assay is Sodium-dependent serotonin transporter (Rattus norvegicus, UniProt P31652). Description: Inhibition of [125I]RTI-55 binding to Serotonin transporter of rat caudate membranes. It is filed as cell membranes, Membrane.

With `COC(=O)[C@H]1[C@@H](OC(=O)c2ccccc2)C[C@@H]2CC[C@H]1N2C` [COCAINE], the affinity corresponds to a Ki of 130 nM.

Usually Ki stands for the dissociation constant of the complex between target and ligand, obtained from inhibition or displacement.
